{
  "source": "ChEMBL document CHEMBL5608247",
  "about": "“Development of a First-in-Class DNMT1/HDAC Inhibitor with Improved Therapeutic Potential and Potentiated Antitumor Immunity” (J Med Chem, 2024)",
  "key": {"MC-38": {"tested_on": "MC-38", "assay": "Antitumor activity against mouse MC38 cells allografted in immunocompetent C57BL/6J mouse at 30 mg/kg, ip qd for 13 days in presence of SAHA relative to control", "assay_type": "functional", "conditions": "MC-38, 312 h, time 13 day, read-out: TGI"}, "[1]": {"assay": "Toxicity in immunocompetent C57BL/6J mouse allografted with mouse MC38 cells assessed as drug tolerance at 30 mg/kg, ip qd for 13 days in presence of SAHA", "assay_type": "organism-based, MC-38", "conditions": "in vivo, 312 h, time 13 day"}, "[2]": {"assay": "Toxicity in immunocompetent C57BL/6J mouse allografted with mouse MC38 cells assessed as body weight loss at 30 mg/kg, ip qd for 13 days in presence of SAHA", "assay_type": "organism-based, MC-38", "conditions": "in vivo, 312 h, time 13 day"}},
  "data": [
    {"compound": "CCc1c(C#N)c(SC(C(N)=O)c2ccccc2)nc(N2CCC(N)CC2)c1C#N", "note": "(stereo not drawn)", "values": [
      {"measurement": "inhibition in vivo at 30 mg/kg", "setting": "MC-38", "value": 74, "unit": "%"},
      {"measurement": "Activity", "setting": "[1]", "value": "Non-Toxic"},
      {"measurement": "Activity", "setting": "[2]", "value": "Non-Toxic"}
    ]}
  ]
}
